The results in this text go back to US20240181039A1, “INFLUENZA VACCINE FOR INTRANASAL ADMINISTRATION” (priority 2021, published 2024).

The test system of this experiment is M-like cells (Caco-2+Raji B). The experiment in a line: Transcytosis with TGDK not linked (free TGDK), M-like cells. The class given is cell-based. The conditions noted are these: 22.9 μg HA whole inactivated vaccine, free TGDK 1.1 or 11.1 μM; qPCR after 1 hour.

Consider `NCCNC(=O)[C@H](CCCCNC(=O)[C@H](CCCCNC(=O)c1cc(O)c(O)c(O)c1)NC(=O)c1cc(O)c(O)c(O)c1)NC(=O)[C@H](CCCCNC(=O)c1cc(O)c(O)c(O)c1)NC(=O)c1cc(O)c(O)c(O)c1` [TGDK, N2, N6-bis [N2, N6-bis (3,4,5-trihydroxybenzoyl)-lysyl]-N-(2-aminoethyl)-lysine amide], for which the “transfer of the vaccine antigen to the upper chamber” value is listed as “inhibited”.
